Amino acid sequences for entries named in this document (tags omitted). Residues count along the entry.
UniProt Q9BZ71, 615-974 limits assumed: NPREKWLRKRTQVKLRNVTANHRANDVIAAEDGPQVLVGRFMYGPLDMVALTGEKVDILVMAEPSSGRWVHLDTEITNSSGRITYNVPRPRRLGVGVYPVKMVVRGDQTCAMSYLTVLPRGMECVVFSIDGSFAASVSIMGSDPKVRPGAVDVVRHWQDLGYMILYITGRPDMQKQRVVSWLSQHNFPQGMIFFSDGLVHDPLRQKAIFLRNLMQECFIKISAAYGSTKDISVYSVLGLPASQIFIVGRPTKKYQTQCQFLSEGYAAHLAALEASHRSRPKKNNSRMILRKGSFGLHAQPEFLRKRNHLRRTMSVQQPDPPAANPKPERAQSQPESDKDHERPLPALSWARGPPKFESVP

In publication PMC9762305:

Target: purified human recombinant PITPNM3 (Homo sapiens, UniProt Q9BZ71)
Assay: biolayer interferometry (Fortebio Octet)
Settings: immobilised PITPNM3

Kd: 500 nM
Structure (SMILES): COc1ccc(C(=O)CC2(O)C(=O)N(CN3CCN(Cc4ccc5c(c4)OCO5)CC3)c3ccccc32)cc1 (stereo not shown)
